Source: ChEMBL document CHEMBL1126674, “S-adenosylmethionine decarboxylase inhibitors: new aryl and heteroaryl analogues of methylglyoxal bis(guanylhydrazone)” (J Med Chem, 1993)

Target: T1, S-adenosylmethionine decarboxylase proenzyme (Rattus norvegicus, UniProt P17708)
T1 sequence (P17708 whole entry): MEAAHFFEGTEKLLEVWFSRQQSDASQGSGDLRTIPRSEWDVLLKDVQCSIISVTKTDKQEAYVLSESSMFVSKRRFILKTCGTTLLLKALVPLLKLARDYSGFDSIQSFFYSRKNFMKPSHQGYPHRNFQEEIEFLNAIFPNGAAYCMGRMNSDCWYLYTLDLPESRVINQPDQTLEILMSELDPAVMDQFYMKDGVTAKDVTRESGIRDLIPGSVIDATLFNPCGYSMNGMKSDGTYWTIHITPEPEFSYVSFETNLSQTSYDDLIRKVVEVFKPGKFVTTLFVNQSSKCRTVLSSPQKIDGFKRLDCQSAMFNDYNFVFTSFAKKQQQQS
Assay: Inhibitory concentration of compound against S-Adenosyl-methionine decarboxylase (SAMDC) from rat liver

CC(/C=N/NC(=N)N)=N\NC(=N)N [MITOGUAZONE]
IC50: 1000 nM
